This is an account of results in patent US11446308B2, “Methods and compositions for the prevention and treatment of hearing loss” (St. Jude Children's Research Hospital, priority 2015, dated 2022).

Molecules are shown by their SMILES. Where two headings read alike, the source gives them in different places.

In test [1] the test system is noise-induced hearing loss in FVB mice. In words: Noise-induced hearing loss in adult mice, transtympanic injection. Conditions: for wave 1 amplitudes of ABR at 16 kHz: vs DMSO ear.
Test [2] deals with cisplatin-induced hair cell loss and hearing loss in FVB mice. Kind of test: Cisplatin-induced hair cell loss and hearing loss in adult mice, transtympanic injection. As to conditions: 250 μM in 0.5% DMSO transtympanic, cisplatin 30 mg/kg IP, day 14, vs DMSO ear.
The next test has as its system HEI-OC1 cells. In words: Caspase-3/7 Glo assay, cisplatin-induced apoptosis in HEI-OC1 cell line. As to conditions: Mus musculus.
Setting [3] is: HEI-OC1, 22 h, read-out: HEI-OC1 IC50.
[4] abbreviates: HEI-OC1, read-out: HEI-OC1 IC50.

As usually defined, the IC50 is the concentration at which inhibition is half-maximal.

`O=C1Cc2c([nH]c3ccc(Br)cc23)-c2ccccc2N1` [Compound 4, Kenpaullone] registered a mean hearing protection in test [1] (250 μM transtympanic after 100 dB SPL 8-16 kHz noise 2 hrs, 8 kHz D7, 8 and 16 kHz D14) of about 12 dB. Also, in test [1] (250 μM transtympanic, vs DMSO + noise), the ctbp2 puncta loss result is given as “significantly protects ctbp2 puncta loss”. Besides, the “wave 1 amplitudes of ABR at 16 kHz” value in test [1] (250 μM transtympanic) is given as “increased”; in test [1] (250 μM transtympanic, listed as kenpaullone), “significant differences”. The figures for the “outer hair cell (OHC) survival after cisplatin” value in test [2] and in test [2] (listed as kenpaullone) were “significantly protected” and “significantly increases outer hair cell (OHC) survival”, respectively. Moreover, the IC50 in the test on HEI-OC1 cells (setting [3]) and with HEI-OC1 cells (setting [4]) was 2100 nM throughout.
As to `NS(=O)(=O)c1ccc(N/N=C2\C(=O)Nc3cc(Br)ccc32)cc1` [Compound 12, CDK2 inhibitor II], the IC50 in the test on HEI-OC1 cells (setting [3]) and in the test on HEI-OC1 cells (setting [4]) was 500 nM each time.
